# Reference: PubChem BioAssay AID602283 (Johns Hopkins Ion Channel Center, 2012)
# The entries are a selection whose mix differs from that of the whole data set. Activity calls are given as the source filed them.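 Rule for the calls: active = inhibition exceeding 3 SD of buffer-only control wells (cut at about 26% in these data); inactive = the rest.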
# Test: carbachol calcium response changes in non-induced cells, primary screen, counter-screen for RGS4 activator project, cell-based, HEK293 M3R, non-induced RGS4, Fluo-4 calcium (AID 602283);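 note: percent drop in integrated peak-minus-baseline over baseline Fluo4 ratio after carbachol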
# Details: HEK293 M3R non-induced RGS4, Fluo4 calcium flux; at 10 µM; stronger effect = higher value; after carbachol challenge at its EC90
row,SMILES,inhibition
1,COc1cc(C(=O)NCC2(N3CCCCC3)CCCCC2)ccc1OC(F)F,inactive: 0%
2,CCOc1ccc(C)cc1CN(CCCl)CCCl,active: 94.3%
3,O=C(OC1CN2CCC1CC2)C1c2ccccc2C=Cc2ccccc21 (stereo not drawn),active: 91.8%
